Measurements reported in patent US9517988B2 (Sichuan Haisco Pharmaceutical Co., Ltd., priority 2013, dated 2016).

How the values were obtained:
[1] = Righting reflex experiment on mice; settings: both, ICR, mouse, in vivo, iv
Description: LD5 (5% lethal dose): dose required to cause 5% of mice to die in a test.
If a normal animal was able to immediately turn its body to normal upright position after being pushed over or made lying on its back, such a reflex was determined as the righting reflex. Otherwise, loss of the righting reflex and the time of loss were recorded, and a reflex recovery time was recorded when the animal restored the righting reflex. The period from finishing of drug administration until loss of the righting reflex was recorded as the anesthesia induction time, and the period from loss of the righting reflex until recovery of the righting reflex was recorded as the anesthesia maintenance time.
TI (therapeutic index, i.e. LD50/ED50), SI (safety index, i.e. LD5/ED95). […]
Indicators such as median effective dose (ED50), median lethal dose (LD50), therapeutic index (TI, i.e. LD50/ED50), safety index (SI, i.e. LD5/ED95), anesthesia induction time, anesthesia maintenance time, and maximum tolerated dose (MTD) were used to evaluate the effect and safety of anesthesia. […] Upon intravenous injection, the time of loss of the righting reflex was recorded. The period from finishing of drug administration until loss of the righting reflex was recorded as the anesthesia induction time, and the period from loss of the righting reflex until recovery of the righting reflex was recorded as the anesthesia maintenance time. […]

[2] = Righting reflex experiment on mice with prodrugs; settings: both sexes, ICR, mouse, in vivo, intravenous injection, prodrugs in physiological saline
Description: After adapting to the laboratory environment, the SPF-grade ICR mice were fasted for 12 hours.

In the case of `CC(C)c1cccc(C(C)C)c1O` [Propofol, reference compound], the LD50 [1] is reported as 31.3 mg/kg and the LD50 [2] is reported as 31.3 mg/kg.
